Test system: erythrocytes
Assay: Hemolysis assay, erythrocytes in PBS
Type: cell-based, human
Conditions: 1 μM concentration
Experimental: Erythrocytes were incubated (0.5 h, 37 °C) with different CAMP concentrations ranging from 6.25 μM to 100 μM. Incubation conditions chosen were similar to those used in other studies. Following incubation, the samples were centrifuged, and the supernatant analyzed spectrophotometrically for hemoglobin at 414 nm and 540 nm. Absorption at 414 nm provides higher sensitivity. The results were the same no matter which wavelength was used to monitor for hemoglobin.
The hemolytic activity of CAMPs was determined using a hemolysis assay measuring hemoglobin released from damaged cells. A working erythrocyte suspension (in PBS) was prepared so that its ten-fold dilution gave an optical density of 0.4 at 800 nm. This working suspension corresponded to a cell density of about 30 × 10^6 cells/mL. Aliquots of 125 μL of CAMP solutions of different concentrations were added to Eppendorf tubes. […] The supernatant (200 μL) was transferred to the wells of a microplate, and the absorbance of hemoglobin was measured by a Thermo Electron Multiskan Ascent microplate reader (Thermo Fisher Scientific Inc., Waltham, MA, USA), with a test wavelength of 414 nm as well as 540 nm and a background wavelength of 690 nm. The hemolysis percentage was calculated using the following equation: Hemolysis (%) = {(sample absorbance − negative control)/(positive control − negative control)} × 100.

## CC[C@H](C)[C@H](NC(=O)CN)C(=O)NCC(=O)N[C@@H](C)C(=O)N[C@H](C(=O)N[C@@H](CC(C)C)C(=O)N[C@@H](CCCCN)C(=O)N[C@H](C(=O)N[C@@H](CC(C)C)C(=O)N[C@H](C(=O)N[C@H](C(=O)NCC(=O)N[C@@H](CC(C)C)C(=O)N1CCC[C@H]1C(=O)N[C@@H](C)C(=O)N[C@@H](CC(C)C)C(=O)N[C@H](C(=O)N[C@@H](CO)C(=O)N[C@@H](Cc1c[nH]c2ccccc12)C(=O)N[C@H](C(=O)N[C@@H](CCCCN)C(=O)N[C@@H](CCCNC(=N)N)C(=O)N[C@@H](CCCCN)C(=O)N[C@@H](CCCNC(=N)N)C(=O)N[C@@H](CCC(N)=O)C(=O)N[C@@H](CCC(N)=O)C(N)=O)[C@@H](C)CC)[C@@H](C)CC)[C@@H](C)O)[C@@H](C)O)C(C)C)C(C)C [melittin, reference compound]
  Hemolysis: 100%
